From US6087364A, “Dopamine D4 receptor antagonists” (Warner-Lambert Company, priority 1998, dated 2000)

Amino acid sequences for entries named in this document (tags omitted).
UniProt P14416, whole entry: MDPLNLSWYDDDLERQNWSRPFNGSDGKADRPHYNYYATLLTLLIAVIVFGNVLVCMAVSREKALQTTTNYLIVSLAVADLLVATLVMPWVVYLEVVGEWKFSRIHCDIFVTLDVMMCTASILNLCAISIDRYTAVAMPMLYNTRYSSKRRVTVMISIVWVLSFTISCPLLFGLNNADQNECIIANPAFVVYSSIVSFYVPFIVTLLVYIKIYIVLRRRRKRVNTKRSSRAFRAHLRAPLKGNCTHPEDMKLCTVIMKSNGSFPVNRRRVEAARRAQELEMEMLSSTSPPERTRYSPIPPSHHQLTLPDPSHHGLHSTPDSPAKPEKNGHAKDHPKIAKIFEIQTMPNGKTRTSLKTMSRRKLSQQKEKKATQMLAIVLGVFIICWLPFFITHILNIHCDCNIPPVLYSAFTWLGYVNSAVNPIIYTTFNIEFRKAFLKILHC

Biological target: human dopamine D2 (Long form) receptor (Homo sapiens, UniProt P14416)
Assay: D2 dopamine receptor binding assay ([3H]spiperone, membranes of CHO K1 cells)
Description: A cell line expressing human dopamine D2 (Long form) receptors was purchased from Oregon Health Sciences University, Portland, Oreg. The D2 receptor cDNA was subcloned into an expression vector, pRc/CMV. The plasmids were transfected by electroporation into CHO K1 cells. A single stable transfectant, resistant to the antibiotic G418, was isolated and selected for use in the binding studies. For D4 binding, CHO K1 cells stably transfected to express the human recombinant dopamine D4.2 receptor subtype, as described by Shih, et al., "The Expression and Functional Characterization of Human Dopamine D4.2 Receptor in CHO K1 Cells," Soc. Neurosci., 21(Part 1): 621 (1995). […]
After 60 minutes incubation at 25° C., the incubations were terminated by rapid filtration through Whatmann GF/B glass fibre filters (soaked for 1 hour in 0.5% polyethylenimine) on a cell harvester, with three washes of 1 mL ice-cold buffer. Individual filter disks containing the bound ligand were placed in counting vials with 4 mL of scintillation fluid (Ready Gel, Beckman Instrument Inc., Fullerton, Calif.) and then counted in a Beckman LS-6800 liquid scintillation counter at an efficiency of 45%. […]
Saturation and competition binding data were analyzed using an iterative nonlinear least-square curve-fitting Ligand program. […]

Ki [µM] | Ki (human D2 receptor, CHO K1 membranes, 0.2 nM [3H]spiperone, 60 min, 25° C., apparent Ki from IC50 (Cheng and Prusoff)) [µM] | Structure (SMILES)
> 5.88 |  | Cc1ccc(N2CCN(CCC3NC(=O)c4ccccc43)CC2)cc1C (single isomer, unassigned; (-)) [(-)-3-{2-[4-(3,4-Dimethyl-phenyl)-piperazin-1-yl]-ethyl}-2,3-dihydro-isoindol-1-one]
 | 1.84 | Cc1ccc(N2CCN(CCC3NC(=O)c4ccccc43)CC2)cc1C (centres unmarked) [3-{2-[4-(3,4-Dimethyl-phenyl)-piperazin-1-yl]-ethyl}-2,3-dihydro-isoindol-1-one]

Read-outs that look alike come from different tables or passages of the source.
